PubChem BioAssay (NCI)
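In this assay, cells in 96-well plates receive the compound at five concentrations for 48 hours. Endpoints are linearly interpolated between the surrounding concentrations. TGI: concentration producing complete growth inhibition.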

System: NCI-H23 lung
Assay: NCI anticancer screen, dose series, 48 h

CC1C(=O)C(C)C(c2ccccc2)N(C)C1c1ccccc1 (stereo unspecified)
TGI: > 100 µM
